By UniProt entry, the sequences of proteins in these tests, tags left out.
UniProt P21452, whole entry: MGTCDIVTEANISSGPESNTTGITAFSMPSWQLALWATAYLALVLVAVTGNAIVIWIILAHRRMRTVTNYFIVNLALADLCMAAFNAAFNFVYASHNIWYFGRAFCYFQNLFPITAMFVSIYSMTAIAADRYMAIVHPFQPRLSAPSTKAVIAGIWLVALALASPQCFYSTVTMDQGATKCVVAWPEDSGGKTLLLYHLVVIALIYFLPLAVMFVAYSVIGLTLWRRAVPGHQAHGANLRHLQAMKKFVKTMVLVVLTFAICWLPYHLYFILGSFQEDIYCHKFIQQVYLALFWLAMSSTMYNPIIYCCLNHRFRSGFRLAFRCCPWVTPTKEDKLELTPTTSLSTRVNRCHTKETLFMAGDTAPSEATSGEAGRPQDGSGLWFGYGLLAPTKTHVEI
UniProt P25103, whole entry: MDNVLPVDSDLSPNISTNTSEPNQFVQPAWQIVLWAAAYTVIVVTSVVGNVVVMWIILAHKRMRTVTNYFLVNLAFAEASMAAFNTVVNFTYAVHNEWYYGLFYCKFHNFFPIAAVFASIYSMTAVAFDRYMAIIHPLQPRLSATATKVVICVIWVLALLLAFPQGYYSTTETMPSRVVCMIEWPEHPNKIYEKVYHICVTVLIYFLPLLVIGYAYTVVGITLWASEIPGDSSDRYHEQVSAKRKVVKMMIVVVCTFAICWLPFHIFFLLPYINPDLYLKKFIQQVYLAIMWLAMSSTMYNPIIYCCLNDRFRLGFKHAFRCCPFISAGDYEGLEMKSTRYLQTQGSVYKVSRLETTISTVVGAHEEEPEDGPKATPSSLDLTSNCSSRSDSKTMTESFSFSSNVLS
UniProt P29371, whole entry: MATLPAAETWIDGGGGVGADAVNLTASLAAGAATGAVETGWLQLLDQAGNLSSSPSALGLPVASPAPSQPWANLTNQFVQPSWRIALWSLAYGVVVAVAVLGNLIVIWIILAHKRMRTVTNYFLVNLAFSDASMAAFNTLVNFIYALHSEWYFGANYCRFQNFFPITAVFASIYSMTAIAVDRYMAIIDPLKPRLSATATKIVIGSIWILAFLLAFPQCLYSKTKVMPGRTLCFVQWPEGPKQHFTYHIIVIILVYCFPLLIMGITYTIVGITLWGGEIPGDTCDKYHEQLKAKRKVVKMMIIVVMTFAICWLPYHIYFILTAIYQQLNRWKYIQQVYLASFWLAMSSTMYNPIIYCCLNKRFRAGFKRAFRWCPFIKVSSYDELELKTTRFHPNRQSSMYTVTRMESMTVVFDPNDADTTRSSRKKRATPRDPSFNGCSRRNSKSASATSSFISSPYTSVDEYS

According to US7612056B2, “Substituted diaza-spiro-[4.5]-decane derivatives and their use as neurokinin antagonists” (Jenssen Pharmaceutica N.V., priority 2005, dated 2009):

Legend:
Conditions in all cases: antagonist, Ca++ transient peak
NK2 = NK2 (Homo sapiens, UniProt P21452); assay: Signal transduction (ST), intracellular Ca++ (FLIPR), NK2
NK1 = NK1 (Homo sapiens, UniProt P25103); assay: Signal transduction (ST), intracellular Ca++ (FLIPR), NK1
Experimental: This test evaluates in vitro functional NK1 antagonistic activity. For the measurements of intracellular Ca^++ concentrations the cells were grown on 96-well (black wall/transparent bottom) plates from Costar for 2 days until they reached confluence. The cells were loaded with 2 μM Fluo3 in DMEM containing 0.1% BSA and 2.5 mM probenecid for 1 h at 37° C. They were washed 3× with a Krebs buffer (140 mM NaCl, 1 mM MgCl2×6H2O, 5 mM KCl, 10 mM glucose, 5 mM HEPES; 1.25 mM CaCl2; pH 7.4) containing 2.5 mM probenecid and 0.1% BSA (Ca^++-buffer). The cells were preincubated with a concentration range of antagonists for 20 min at RT and Ca^++-signals after addition of the agonists were measured in a Fluorescence Image Plate Reader (FLIPR from Molecular Devices, Crawley, England). The peak of the Ca^++-transient was considered as the relevant signal and the mean values of corresponding wells were analysed as described below.
The sigmoidal dose response curves were analysed by computerised curve-fitting, using the GraphPad Program. The EC50-value of a compound is the effective dose showing 50% of maximal effect. For mean curves the response to the agonist with the highest potency was normalised to 100%. For antagonist responses the IC50-value was calculated using non-linear regression. […]

NK3 = NK3 (Homo sapiens, UniProt P29371); assay: Signal transduction (ST), intracellular Ca++ (FLIPR), NK3

Compound	pIC50 NK2 (NK2)	pIC50 NK1 (NK1)	pIC50 NK3 (NK3)
O=C(c1cc(C(F)(F)F)cc(C(F)(F)F)c1)N1CC[C@@H](N2CCC3(CC2)CCN(S(=O)(=O)c2cccs2)C3)C[C@H]1Cc1ccccc1	<5	6.51	<5
O=C(c1ccoc1)N1CCC2(CC1)CCN([C@H]1CCN(C(=O)c3cc(C(F)(F)F)cc(C(F)(F)F)c3)[C@H](Cc3ccccc3)C1)C2	5.65	7.15	5.68
